Permeability data for macrocyclic peptides

PAMPA is the parallel artificial membrane permeability assay, which has no cells and reads passive diffusion.
Values are log10 P with P in cm/s, so -5 is more permeable than -7.

- CC(=O)N[C@@H]1C(=O)N2CCC[C@H]2C(=O)N(C)[C@H](CC(C)C)C(=O)N(C)[C@H](CC(C)C)C(=O)N(C)[C@H](CC(C)C)C(=O)N(C)[C@H](CC(C)C)C(=O)N(C)[C@@H](C)C(=O)N[C@@H](CC(C)C)C(=O)N2CCC[C@@H]2C(=O)O[C@@H]1C: PAMPA -5.40 (log10 cm/s)
- CC(=O)N1CCC[C@@H]1C(=O)N(C)[C@H](CC(C)C)C(=O)N[C@@H]1C(=O)N(C)[C@H](CC(C)C)C(=O)N[C@H](CC(C)C)C(=O)N(C)[C@@H](CC(C)C)C(=O)N(C)[C@@H](C)C(=O)N[C@H](CC(C)C)C(=O)N2CCC[C@@H]2C(=O)O[C@@H]1C: PAMPA -5.59 (log10 cm/s)
- CC(=O)N[C@@H]1C(=O)N2CCC[C@H]2C(=O)N(C)[C@H](CC(C)C)C(=O)N(C)[C@@H](CC(C)C)C(=O)N(C)[C@@H](CC(C)C)C(=O)N(C)[C@H](CC(C)C)C(=O)N(C)[C@@H](C)C(=O)N[C@@H](CC(C)C)C(=O)N2CCC[C@@H]2C(=O)O[C@@H]1C: PAMPA -5.18 (log10 cm/s)
- CC(=O)N1CCC[C@@H]1C(=O)N(C)[C@H](CC(C)C)C(=O)N[C@@H]1C(=O)N[C@H](CC(C)C)C(=O)N[C@@H](CC(C)C)C(=O)N[C@@H](CC(C)C)C(=O)N(C)[C@@H](C)C(=O)N[C@@H](CC(C)C)C(=O)N2CCC[C@H]2C(=O)O[C@@H]1C: PAMPA -6.41 (log10 cm/s)
- CC(=O)N1CCC[C@H]1C(=O)N[C@@H]1C(=O)N[C@H](CC(C)C)C(=O)N[C@H](CC(C)C)C(=O)N[C@H](CC(C)C)C(=O)N[C@@H](CC(C)C)C(=O)N(C)[C@@H](C)C(=O)N[C@@H](CC(C)C)C(=O)N2CCC[C@@H]2C(=O)O[C@@H]1C: PAMPA -5.95 (log10 cm/s)
- CC(=O)N1CCC[C@@H]1C(=O)N(C)[C@@H](CC(C)C)C(=O)N[C@@H]1C(=O)N[C@@H](CC(C)C)C(=O)N[C@@H](CC(C)C)C(=O)N(C)[C@@H](CC(C)C)C(=O)N(C)[C@H](C)C(=O)N[C@H](CC(C)C)C(=O)N2CCC[C@H]2C(=O)O[C@@H]1C: PAMPA -6.18 (log10 cm/s)
- CC(=O)N1CCC[C@@H]1C(=O)N(C)[C@@H](CC(C)C)C(=O)N[C@@H]1C(=O)N(C)[C@H](CC(C)C)C(=O)N[C@@H](CC(C)C)C(=O)N[C@H](CC(C)C)C(=O)N(C)[C@@H](C)C(=O)N[C@@H](CC(C)C)C(=O)N2CCC[C@H]2C(=O)O[C@@H]1C: PAMPA -5.29 (log10 cm/s)
- CC(=O)N1CCC[C@H]1C(=O)N(C)[C@@H](CC(C)C)C(=O)N[C@@H]1C(=O)N(C)[C@H](CC(C)C)C(=O)N[C@H](CC(C)C)C(=O)N[C@H](CC(C)C)C(=O)N[C@@H](C)C(=O)N[C@H](CC(C)C)C(=O)N2CCC[C@H]2C(=O)O[C@@H]1C: PAMPA -6.38 (log10 cm/s)
- CC(=O)N[C@@H]1C(=O)N2CCC[C@H]2C(=O)N(C)[C@H](CC(C)C)C(=O)N[C@H](CC(C)C)C(=O)N[C@H](CC(C)C)C(=O)N(C)[C@H](CC(C)C)C(=O)N(C)[C@@H](C)C(=O)N[C@@H](CC(C)C)C(=O)N2CCC[C@@H]2C(=O)O[C@@H]1C: PAMPA -6.44 (log10 cm/s)
- CC(=O)N1CCC[C@H]1C(=O)N[C@@H]1C(=O)N[C@H](CC(C)C)C(=O)N(C)[C@@H](CC(C)C)C(=O)N[C@@H](CC(C)C)C(=O)N[C@@H](CC(C)C)C(=O)N(C)[C@@H](C)C(=O)N[C@@H](CC(C)C)C(=O)N2CCC[C@@H]2C(=O)O[C@@H]1C: PAMPA -5.80 (log10 cm/s)
- CC(=O)N1CCC[C@@H]1C(=O)N(C)[C@@H](CC(C)C)C(=O)N[C@@H]1C(=O)N[C@H](CC(C)C)C(=O)N(C)[C@H](CC(C)C)C(=O)N(C)[C@@H](CC(C)C)C(=O)N(C)[C@@H](C)C(=O)N[C@@H](CC(C)C)C(=O)N2CCC[C@@H]2C(=O)O[C@@H]1C: PAMPA -5.28 (log10 cm/s)
- CC(=O)N1CCC[C@@H]1C(=O)N(C)[C@H](CC(C)C)C(=O)N[C@@H]1C(=O)N[C@H](CC(C)C)C(=O)N(C)[C@@H](CC(C)C)C(=O)N(C)[C@@H](CC(C)C)C(=O)N(C)[C@H](C)C(=O)N[C@H](CC(C)C)C(=O)N2CCC[C@H]2C(=O)O[C@@H]1C: PAMPA -5.43 (log10 cm/s)
- CC(=O)N1CCC[C@H]1C(=O)N(C)[C@H](CC(C)C)C(=O)N[C@@H]1C(=O)N(C)[C@H](CC(C)C)C(=O)N(C)[C@H](CC(C)C)C(=O)N[C@@H](CC(C)C)C(=O)N(C)[C@@H](C)C(=O)N[C@H](CC(C)C)C(=O)N2CCC[C@@H]2C(=O)O[C@@H]1C: PAMPA -5.15 (log10 cm/s)
- CC(=O)N1CCC[C@@H]1C(=O)N(C)[C@H](CC(C)C)C(=O)N[C@@H]1C(=O)N[C@H](CC(C)C)C(=O)N(C)[C@H](CC(C)C)C(=O)N(C)[C@@H](CC(C)C)C(=O)N[C@@H](C)C(=O)N[C@H](CC(C)C)C(=O)N2CCC[C@H]2C(=O)O[C@@H]1C: PAMPA -9.00 (log10 cm/s)
- CC(=O)N1CCC[C@H]1C(=O)N[C@@H]1C(=O)N(C)[C@H](CC(C)C)C(=O)N(C)[C@@H](CC(C)C)C(=O)N(C)[C@@H](CC(C)C)C(=O)N(C)[C@@H](CC(C)C)C(=O)N(C)[C@H](C)C(=O)N[C@@H](CC(C)C)C(=O)N2CCC[C@@H]2C(=O)O[C@@H]1C: PAMPA -5.09 (log10 cm/s)

Repeated from above, the 2 entries with the highest PAMPA:

- CC(=O)N1CCC[C@H]1C(=O)N[C@@H]1C(=O)N(C)[C@H](CC(C)C)C(=O)N(C)[C@@H](CC(C)C)C(=O)N(C)[C@@H](CC(C)C)C(=O)N(C)[C@@H](CC(C)C)C(=O)N(C)[C@H](C)C(=O)N[C@@H](CC(C)C)C(=O)N2CCC[C@@H]2C(=O)O[C@@H]1C: PAMPA -5.09 (log10 cm/s)
- CC(=O)N1CCC[C@H]1C(=O)N(C)[C@H](CC(C)C)C(=O)N[C@@H]1C(=O)N(C)[C@H](CC(C)C)C(=O)N(C)[C@H](CC(C)C)C(=O)N[C@@H](CC(C)C)C(=O)N(C)[C@@H](C)C(=O)N[C@H](CC(C)C)C(=O)N2CCC[C@@H]2C(=O)O[C@@H]1C: PAMPA -5.15 (log10 cm/s)

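Conditions beyond the assay type are not listed; see the original paper. Other peptides of the study may be missing here. Peptides that the database sets to -10, its floor, are left out.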

Source: CycPeptMPDB (Li et al. 2023), which took these values from Kelly et al. 2021, doi:10.1021/jacs.0c06115.